Values of other authors as cited in PMC11054906, “A Population Pharmacokinetic Study to Compare a Novel Empagliflozin L-Proline Formulation with Its Conventional Formulation in Healthy Subjects” (Pharmaceuticals, 2024).

Key:
[1] = cited from earlier work
[2] = preclinical studies; ref data on file; cited from earlier work

For Empagliflozin L-proline, the “bioequivalence to conventional empagliflozin formulation” value ([1]; South Korea, AUClast and Cmax after single-dose administration) is given as “bioequivalent”, the “minimum Tmax values compared with empagliflozin” value ([1]; two dose strengths) is given as “larger than that of empagliflozin” and the “fate in the digestive system and absorbed form” value [2] is given as “broken down to empagliflozin in the digestive system and be absorbed in the form of empagliflozin”.
